Amino acid sequences for entries named in this document (tags omitted).
UniProt Q9UBN7, whole entry, species assumed: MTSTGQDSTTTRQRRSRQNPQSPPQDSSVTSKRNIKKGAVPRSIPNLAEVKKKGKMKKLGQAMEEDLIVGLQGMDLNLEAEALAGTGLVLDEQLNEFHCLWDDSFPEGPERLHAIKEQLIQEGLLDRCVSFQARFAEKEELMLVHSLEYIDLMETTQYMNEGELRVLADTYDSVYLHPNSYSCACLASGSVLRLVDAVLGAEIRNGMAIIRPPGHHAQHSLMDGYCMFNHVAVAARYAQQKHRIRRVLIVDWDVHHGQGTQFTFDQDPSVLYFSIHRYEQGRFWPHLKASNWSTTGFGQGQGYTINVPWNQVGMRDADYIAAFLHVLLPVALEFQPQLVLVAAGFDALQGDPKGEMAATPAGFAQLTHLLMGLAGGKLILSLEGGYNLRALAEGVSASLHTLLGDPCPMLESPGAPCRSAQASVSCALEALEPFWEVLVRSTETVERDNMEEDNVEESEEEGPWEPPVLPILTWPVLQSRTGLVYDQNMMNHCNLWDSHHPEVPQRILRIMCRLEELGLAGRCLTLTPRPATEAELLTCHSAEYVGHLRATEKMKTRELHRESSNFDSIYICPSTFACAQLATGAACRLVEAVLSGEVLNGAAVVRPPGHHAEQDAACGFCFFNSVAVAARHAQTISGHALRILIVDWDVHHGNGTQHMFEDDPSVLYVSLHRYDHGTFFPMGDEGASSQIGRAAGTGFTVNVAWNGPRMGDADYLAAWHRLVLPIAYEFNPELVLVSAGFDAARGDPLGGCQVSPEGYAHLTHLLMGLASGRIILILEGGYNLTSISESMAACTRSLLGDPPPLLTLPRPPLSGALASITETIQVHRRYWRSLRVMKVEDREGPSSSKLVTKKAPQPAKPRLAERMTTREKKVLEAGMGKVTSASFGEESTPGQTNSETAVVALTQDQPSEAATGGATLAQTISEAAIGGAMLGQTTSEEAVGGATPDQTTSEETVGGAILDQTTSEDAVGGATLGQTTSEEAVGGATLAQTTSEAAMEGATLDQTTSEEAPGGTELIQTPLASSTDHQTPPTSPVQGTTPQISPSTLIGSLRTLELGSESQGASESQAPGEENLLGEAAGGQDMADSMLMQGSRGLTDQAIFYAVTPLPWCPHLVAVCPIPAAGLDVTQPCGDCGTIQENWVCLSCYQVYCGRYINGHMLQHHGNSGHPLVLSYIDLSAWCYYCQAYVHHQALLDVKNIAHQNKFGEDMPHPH
UniProt Q13547, whole entry, species assumed: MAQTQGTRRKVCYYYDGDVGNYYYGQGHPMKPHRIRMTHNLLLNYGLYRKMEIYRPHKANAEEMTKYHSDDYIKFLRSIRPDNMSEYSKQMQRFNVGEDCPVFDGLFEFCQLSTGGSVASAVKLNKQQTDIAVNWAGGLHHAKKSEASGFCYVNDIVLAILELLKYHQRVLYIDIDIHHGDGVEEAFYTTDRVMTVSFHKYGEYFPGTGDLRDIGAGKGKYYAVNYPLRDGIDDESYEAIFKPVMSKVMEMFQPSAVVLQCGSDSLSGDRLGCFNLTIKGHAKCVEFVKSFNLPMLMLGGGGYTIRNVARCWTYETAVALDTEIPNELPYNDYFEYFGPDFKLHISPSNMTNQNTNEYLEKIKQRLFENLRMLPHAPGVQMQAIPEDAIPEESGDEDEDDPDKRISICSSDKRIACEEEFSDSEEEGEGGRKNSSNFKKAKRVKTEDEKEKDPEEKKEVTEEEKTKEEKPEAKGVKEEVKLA

According to US10150763B2, “Histone deacetylase inhibitors and their use in therapy” (Karus Therapeutics Limited, priority 2012, dated 2018):

What was measured:
HDAC6 = HDAC6 (Homo sapiens (Human), UniProt Q9UBN7); assay: HDAC inhibitory activity assay (as described in WO2008/062201), HDAC6; assay type: biochemical; conditions: class symbol
HDAC1 = HDAC1 (Homo sapiens (Human), UniProt Q13547); assay: HDAC inhibitory activity assay (as described in WO2008/062201), HDAC1; assay type: biochemical; conditions: class symbol

SMILES | IC50 (HDAC6) [nM] | IC50 (HDAC1) [nM]
Cc1nnc(N(CCCCCCCC(=O)NO)c2ccccn2)s1 [Example J, N-Hydroxy-8-((5-methyl-1,3,4-thiadiazol-2-yl)(pyridin-2-yl)amino)octanamide] | < 500 | 
Cn1ccc(N(CCCCCCCC(=O)NO)c2ccccn2)n1 [Example F, N-Hydroxy-8-((1-methyl-1H-pyrazol-3-yl)(pyridin-2-yl)amino)octanamide] | < 500 | 1000 to 10000
Cn1c(N(CCCCCCC(=O)NO)c2ccccn2)nc2ccccc21 [Example M, N-Hydroxy-7-((1-methyl-1H-benzo[d]imidazol-2-yl)(pyridin-2-yl)amino)heptanamide] | < 500 | 
O=C(CCCCCCCN(c1ccccn1)c1nc2ccccc2o1)NO [Example L, 8-(Benzo[d]oxazol-2-yl(pyridin-2-yl)amino)-N-hydroxyoctanamide] |  | > 10000
